One substance from IntAct's records for PubMed 24855271 can be followed below.

For the assay, the target named is kap0_human PRKAR1A (UniProt P10644).

As for “cAMP-dependent protein kinase catalytic subunit alpha (Homo sapiens) (from UniProt P17612) L206R”, the “effect of a mutation on the interaction” value is given as “disrupting interaction strength”.
